Experimental findings from ChEMBL document CHEMBL1123334, “4-Amino-6-chloro-2-piperazinopyrimidines with selective affinity for alpha 2-adrenoceptors” (J Med Chem, 1986) are described below.

By UniProt entry, the sequences of proteins in these tests, tags left out. Where a name states a change or a piece, a line headed by the entry shows the natural chain unless it says otherwise.
UniProt P15823: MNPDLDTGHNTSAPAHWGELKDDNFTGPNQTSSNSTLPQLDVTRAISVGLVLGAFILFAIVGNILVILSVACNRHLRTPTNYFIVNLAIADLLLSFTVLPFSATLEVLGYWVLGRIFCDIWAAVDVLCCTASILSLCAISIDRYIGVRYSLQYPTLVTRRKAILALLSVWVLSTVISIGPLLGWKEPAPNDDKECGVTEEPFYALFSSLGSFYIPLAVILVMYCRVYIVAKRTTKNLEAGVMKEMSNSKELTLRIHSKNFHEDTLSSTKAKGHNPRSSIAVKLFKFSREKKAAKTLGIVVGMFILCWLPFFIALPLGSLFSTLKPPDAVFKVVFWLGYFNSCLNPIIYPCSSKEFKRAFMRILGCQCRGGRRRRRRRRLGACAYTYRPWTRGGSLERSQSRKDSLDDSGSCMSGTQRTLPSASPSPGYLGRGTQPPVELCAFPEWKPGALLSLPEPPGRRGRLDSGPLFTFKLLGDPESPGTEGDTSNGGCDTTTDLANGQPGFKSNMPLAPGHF
UniProt P23944: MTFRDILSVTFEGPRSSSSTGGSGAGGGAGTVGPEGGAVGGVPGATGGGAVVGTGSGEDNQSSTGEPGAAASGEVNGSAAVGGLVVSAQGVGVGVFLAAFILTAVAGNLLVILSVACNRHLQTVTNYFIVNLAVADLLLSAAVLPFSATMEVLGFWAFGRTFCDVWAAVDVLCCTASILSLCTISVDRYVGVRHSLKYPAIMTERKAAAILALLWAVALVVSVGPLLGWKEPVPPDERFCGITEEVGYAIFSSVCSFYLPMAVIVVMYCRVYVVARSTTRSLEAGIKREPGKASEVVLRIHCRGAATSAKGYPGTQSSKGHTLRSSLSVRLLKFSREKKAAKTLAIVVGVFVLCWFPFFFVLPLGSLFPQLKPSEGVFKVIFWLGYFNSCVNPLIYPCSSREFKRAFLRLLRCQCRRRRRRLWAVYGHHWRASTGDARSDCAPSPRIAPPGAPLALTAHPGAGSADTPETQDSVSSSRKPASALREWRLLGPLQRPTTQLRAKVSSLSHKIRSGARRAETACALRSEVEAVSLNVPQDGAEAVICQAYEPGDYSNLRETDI
UniProt P43140: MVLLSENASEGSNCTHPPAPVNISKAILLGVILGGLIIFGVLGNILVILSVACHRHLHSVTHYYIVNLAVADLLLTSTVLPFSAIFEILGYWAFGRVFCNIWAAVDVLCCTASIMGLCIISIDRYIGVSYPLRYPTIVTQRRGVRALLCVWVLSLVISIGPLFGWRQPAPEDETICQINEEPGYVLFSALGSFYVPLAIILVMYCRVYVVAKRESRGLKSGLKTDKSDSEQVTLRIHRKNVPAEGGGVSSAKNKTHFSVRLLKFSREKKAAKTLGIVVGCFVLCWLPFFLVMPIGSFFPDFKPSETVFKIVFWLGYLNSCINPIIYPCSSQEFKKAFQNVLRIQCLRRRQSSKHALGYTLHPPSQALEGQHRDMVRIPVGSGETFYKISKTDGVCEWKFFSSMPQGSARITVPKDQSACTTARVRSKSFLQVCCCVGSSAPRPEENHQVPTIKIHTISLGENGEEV

This test concerns the target Adrenergic receptor alpha-1 (Rattus norvegicus, UniProt P15823+P23944+P43140). The test is described as follows: In vitro binding affinity was measured as the inhibition of [3H]WB-4101 binding to alpha-1 adrenergic receptor of rat cortical membranes. It counts as cell membranes, Membrane.

SMILES strings stand for the structures.

For orientation: Ki means a dissociation constant, usually derived from enzyme kinetics or from competition with a known ligand. The low end stands for higher affinity, the high end for lower affinity. The compound `Clc1cccc(Cl)c1NC1=NCCN1` [CLONIDINE] gave a Ki of 310 nM.
